Experimental findings from US20190046600A1, “COMPOSITIONS AND USES THEREOF” (priority 2016, published 2019) are described below.

The target of the experiment is T1, recombinant human caspase 3 (Homo sapiens, UniProt P42574).
T1 construct: purchased Enzo Life Sciences BML-SE169-5000
T1 sequence (P42574 29-175 limits assumed): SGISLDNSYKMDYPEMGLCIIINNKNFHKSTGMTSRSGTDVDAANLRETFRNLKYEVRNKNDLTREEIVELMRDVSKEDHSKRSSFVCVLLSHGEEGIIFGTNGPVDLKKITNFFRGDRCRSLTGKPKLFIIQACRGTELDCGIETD
T1 sequence (P42574 176-277 limits assumed): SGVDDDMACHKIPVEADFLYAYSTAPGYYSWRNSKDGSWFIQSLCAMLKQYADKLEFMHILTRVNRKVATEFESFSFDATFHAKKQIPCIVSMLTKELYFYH
Put plainly: Apo-ONE Homogeneous Caspase-3/7 assay with recombinant caspase-3. The class given is biochemical. The conditions noted are these: 0.1 or 0.3 U enzyme.

With Ac-DEVD-CHO, the caspase-3 activity result is reported as “inhibited the activity of caspase-3 in a dose-dependent manner”. For the same substance, for the setting “listed as DEVD-CHO”, the caspase-3 activity result is “inhibited the caspase-3 activity in a dose-dependent fashion”.
